The values below come from US6310093A (priority 1998, dated 2001).

Sequences of proteins named here, by UniProt entry; tags and fusion partners are left off. A change or cut given only in a name is not applied to a line headed by its entry.
UniProt D3Z7P3: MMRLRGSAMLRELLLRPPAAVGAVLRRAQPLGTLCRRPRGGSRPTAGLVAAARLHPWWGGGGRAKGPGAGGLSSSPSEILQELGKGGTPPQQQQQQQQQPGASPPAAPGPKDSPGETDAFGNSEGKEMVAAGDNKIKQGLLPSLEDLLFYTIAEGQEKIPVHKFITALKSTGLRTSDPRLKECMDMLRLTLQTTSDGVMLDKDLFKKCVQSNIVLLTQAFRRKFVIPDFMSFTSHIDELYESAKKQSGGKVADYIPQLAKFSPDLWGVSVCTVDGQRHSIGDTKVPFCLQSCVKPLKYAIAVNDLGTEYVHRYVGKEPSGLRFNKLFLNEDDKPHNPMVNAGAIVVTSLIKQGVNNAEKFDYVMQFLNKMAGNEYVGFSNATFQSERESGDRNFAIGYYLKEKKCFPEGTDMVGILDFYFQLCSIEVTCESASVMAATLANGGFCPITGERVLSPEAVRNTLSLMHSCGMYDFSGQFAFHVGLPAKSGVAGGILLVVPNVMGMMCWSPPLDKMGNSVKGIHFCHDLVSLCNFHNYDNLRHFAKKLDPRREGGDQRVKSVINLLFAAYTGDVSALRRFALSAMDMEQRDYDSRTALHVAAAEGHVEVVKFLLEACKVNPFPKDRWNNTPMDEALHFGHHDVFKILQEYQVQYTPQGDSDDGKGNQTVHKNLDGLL

The target of test [1] is glutaminase in live (intact) neurons (Mus musculus, UniProt D3Z7P3). As to conditions: then Gln.
Test [2] concerns pure neuronal cultures (cortical neurons) exposed to glutamine. Conditions: 30 μM, 2 mM glutamine.

Like-named read-outs stand apart in the source and are kept apart here.

p-(chloromercuri)phenyl sulfonic acid: the results for the “glutamate production after neuronal death” value in test [1] (1h 30 μM pCMPS then NMDA) and in test [1] (.25h 30 μM pCMPS then NMDA) were 0.75 ± 0.07 μM Glu/min and 0.88 ± 0.13 μM Glu/min, respectively. For the same substance, the “glutamine hydrolysis / glutamate production by healthy neurons exposed to glutamine (in words)” value was “delayed hydrolysis of glutamine was prevented” in test [2] and “prevented the exponentially increasing rate of glutamate production” in test [2] (listed as PCMPS).
